Measurements taken from the OPERA property sets (Mansouri et al. 2018).

Conditions: experimental values, compiled

Row | SMILES | logP
1 | CCN(CC)CCN(C=O)c1c(C)cccc1C | 3.21
2 | CCC(=O)n1c(=O)n(C2CCN(CCC(C#N)(c3ccccc3)c3ccccc3)CC2)c2ccccc21 | 4.8
